# US20240141017A1, “FLUORESCENT BIOSENSORS AND METHODS OF USE FOR DETECTING CELL SIGNALING EVENTS” (THE REGENTS OF THE UNIVERSITY OF MICHIGAN, priority 2021, published 2024)
# The chains behind the UniProt entries cited, without tags or fusion partners. A line that says so, or that is headed by a name, gives the form on record, which may keep a tag or linker.
# UniProt P41145, with tags, fused parts or gaps: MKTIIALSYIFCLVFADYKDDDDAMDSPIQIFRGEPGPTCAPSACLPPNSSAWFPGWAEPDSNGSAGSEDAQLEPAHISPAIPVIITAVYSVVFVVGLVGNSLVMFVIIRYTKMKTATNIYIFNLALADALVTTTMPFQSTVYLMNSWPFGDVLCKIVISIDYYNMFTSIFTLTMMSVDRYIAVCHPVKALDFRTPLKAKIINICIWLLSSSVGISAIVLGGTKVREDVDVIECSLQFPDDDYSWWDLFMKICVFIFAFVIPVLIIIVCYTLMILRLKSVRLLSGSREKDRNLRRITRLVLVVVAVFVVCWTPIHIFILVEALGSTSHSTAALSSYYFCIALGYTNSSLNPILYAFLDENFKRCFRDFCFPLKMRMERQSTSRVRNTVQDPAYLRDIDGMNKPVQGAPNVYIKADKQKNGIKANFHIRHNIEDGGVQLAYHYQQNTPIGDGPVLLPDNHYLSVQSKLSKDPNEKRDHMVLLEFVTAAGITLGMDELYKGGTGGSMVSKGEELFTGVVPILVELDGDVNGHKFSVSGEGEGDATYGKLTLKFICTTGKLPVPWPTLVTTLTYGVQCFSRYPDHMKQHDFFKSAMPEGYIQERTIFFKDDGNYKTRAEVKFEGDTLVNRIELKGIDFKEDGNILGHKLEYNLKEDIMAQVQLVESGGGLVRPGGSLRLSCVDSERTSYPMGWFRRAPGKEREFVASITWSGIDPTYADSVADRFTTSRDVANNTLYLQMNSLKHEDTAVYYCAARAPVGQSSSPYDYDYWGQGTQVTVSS
# Molecular target: T1, K-SPOTIT1.0 (Homo sapiens, UniProt P41145)
# T1 construct: signal peptide (MKTIIALSYIFCLVFA) (N); expressed in transfected cells; host or cells: HEK293T (lentiviral infection)
# Assay type: cell-based
compound,measurement,value
"COC(=O)[C@@H]1C[C@H](OC(C)=O)C(=O)[C@H]2[C@@]1(C)CC[C@H]1C(=O)O[C@H](c3ccoc3)C[C@]21C [Sal A, Salvinorin A]",biosensor expression level change in the presence and absence of Sal A (immunostaining),< 1 fold
same,fluorescence increase after short pulse of agonist,4.2 fold
same,fluorescence increase compared to the condition without Sal A,10.9 fold
same,fluorescence increase with longer agonist incubation,12 fold
